Values quoted from earlier work, collected in patent US9095653B2, “Method for the timed dosage of medicaments” (BAYER INTELLECTUAL PROPERTY GMBH, priority 2004, dated 2015).

Details: cited from earlier work

## Cn1c(=O)c2[nH]cnc2n(C)c1=O [Theophylline]
  plasma concentration above which risk of undesired side-effects (nausea, trembling, accelerated heart rate) increases: > 20000 ng/mL
